According to PMC8219695 (Nature Communications, 2021):
“And” between values parts separate entries of the source, which are not always exact repeats. Identical values can stand only once.

Amino acid sequences for entries named in this document (tags omitted).
UniProt P32300, whole entry: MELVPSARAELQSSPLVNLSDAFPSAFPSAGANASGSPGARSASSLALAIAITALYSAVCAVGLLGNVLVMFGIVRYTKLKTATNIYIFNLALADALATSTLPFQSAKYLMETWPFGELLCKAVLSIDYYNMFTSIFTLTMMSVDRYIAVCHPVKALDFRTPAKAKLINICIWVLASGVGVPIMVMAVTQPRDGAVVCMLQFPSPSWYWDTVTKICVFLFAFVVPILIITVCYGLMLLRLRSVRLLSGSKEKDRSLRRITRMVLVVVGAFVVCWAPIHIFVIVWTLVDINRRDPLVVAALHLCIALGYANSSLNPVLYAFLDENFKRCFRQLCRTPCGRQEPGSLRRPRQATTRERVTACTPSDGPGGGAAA
UniProt P41143, whole entry: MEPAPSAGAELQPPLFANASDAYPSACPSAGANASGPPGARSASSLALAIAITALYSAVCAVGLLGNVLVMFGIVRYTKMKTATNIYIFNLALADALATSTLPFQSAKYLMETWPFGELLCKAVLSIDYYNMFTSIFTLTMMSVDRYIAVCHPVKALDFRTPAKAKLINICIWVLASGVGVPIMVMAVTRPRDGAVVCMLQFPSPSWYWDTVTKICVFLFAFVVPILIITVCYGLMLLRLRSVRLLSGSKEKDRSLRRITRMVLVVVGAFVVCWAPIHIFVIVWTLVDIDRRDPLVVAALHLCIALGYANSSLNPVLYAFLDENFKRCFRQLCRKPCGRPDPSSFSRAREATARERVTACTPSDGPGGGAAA
UniProt P42866, whole entry: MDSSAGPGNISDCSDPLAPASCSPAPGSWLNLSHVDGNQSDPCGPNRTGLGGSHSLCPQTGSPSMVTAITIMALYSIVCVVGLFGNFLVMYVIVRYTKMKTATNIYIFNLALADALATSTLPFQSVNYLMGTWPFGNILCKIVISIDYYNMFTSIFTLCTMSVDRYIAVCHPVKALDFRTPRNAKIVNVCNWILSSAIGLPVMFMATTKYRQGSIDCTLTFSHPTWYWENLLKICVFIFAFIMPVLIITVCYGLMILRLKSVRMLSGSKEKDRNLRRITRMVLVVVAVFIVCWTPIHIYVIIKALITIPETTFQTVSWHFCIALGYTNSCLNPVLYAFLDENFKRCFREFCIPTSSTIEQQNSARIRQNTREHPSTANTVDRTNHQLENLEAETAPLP

Key:
Assay type in all cases: cell-based
mDOR = target: T1, mDOR (Mus musculus, UniProt P32300); test: CAMYEL BRET cAMP agonist assay at mDOR; conditions: single replicate values, Supplementary Figure 7B
T1 construct: expressed in transfected cells

hDOR = hDOR (Homo sapiens, UniProt P41143); test: CAMYEL BRET cAMP agonist assay at hDOR; conditions: single replicate values, Supplementary Figure 7A
mMOR = target: T2, mMOR (Mus musculus, UniProt P42866); test: BRET-based Nb33 recruitment assay at mMOR; conditions: read-out: Emax mMOR
T2 construct: signal peptide (heterologous, not specified) (N); expressed in transfected cells; pcDNA3.1(+) construct made in house

## CC[C@@H]1CN2CC[C@@]3(O)C(=Nc4cc(Cl)cc(OC)c43)[C@@H]2C[C@@H]1/C(=C\OC)C(=O)OC [11-Cl-7OH (23), 11-Cl-7OH]
mDOR; Log[drug] (M) -5
  Agonist activity of 7OH analogs at mDOR: 18.4666
mDOR; Log[drug] (M) -9
  Agonist activity of 7OH analogs at mDOR: 12.8985 and 12.9272
mDOR; Log[drug] (M) -13
  Agonist activity of 7OH analogs at mDOR: -2.746

## CC[C@@H]1CN2CC[C@@]3(O)C(=Nc4cc(F)cc(OC)c43)[C@@H]2C[C@@H]1/C(=C\OC)C(=O)OC [11-F-7OH (22), 11-Fluoro-7-hydroxymitragynine]
mDOR; Log[drug] (M) -8
  Agonist activity of 7OH analogs at mDOR: 8.2486
hDOR; Log[drug] (M) -9
  Agonist activity of 7OH analogs at hDOR: 11.504
hDOR; Log[drug] (M) -13
  Agonist activity of 7OH analogs at hDOR: 2.358

## CC[C@@H]1CN2CC[C@@]3(O)C(=Nc4cc(Br)cc(OC)c43)[C@@H]2C[C@@H]1/C(=C\OC)C(=O)OC [11-Br-7OH (24), 11-Br-7OH]
hDOR; Log[drug] (M) -5
  Agonist activity of 7OH analogs at hDOR: 18.4127
hDOR; Log[drug] (M) -6
  Agonist activity of 7OH analogs at hDOR: 10.7527
hDOR; Log[drug] (M) -7
  Agonist activity of 7OH analogs at hDOR: 11.4791

## CN1CC[C@]23c4c5ccc(O)c4O[C@H]2[C@@H](O)C=C[C@H]3[C@H]1C5 [Morphine, morphine, reference compound]
mMOR
  Emax: ~67%

## CC[C@@H]1CN2CC[C@@]3(O)C(=Nc4cccc(OC)c43)[C@@H]2C[C@@H]1/C(=C\OC)C(=O)OC [7OH, 7-Hydroxymitragynine, reference compound]
mDOR; Log[drug] (M) -7, listed as 7-OH-Mitragynine
  Agonist activity of 7OH analogs at mDOR: 18.677
mDOR; Log[drug] (M) -11, listed as 7-OH-Mitragynine
  Agonist activity of 7OH analogs at mDOR: 16.3155
hDOR; Log[drug] (M) -10, listed as 7-OH-Mitragynine
  Agonist activity of 7OH analogs at hDOR: 10.8062 and 10.4418
